From patent publication US20030171293A1, “Neuropeptide receptor and uses thereof” (Pfizer Inc., priority 2002, published 2003)

Target: T1, receptor MRGX2 (Homo sapiens, UniProt Q96LB1)
T1 construct: expressed in transfected cells; host or cells: host line such as HEK293 or CHO-K1, stably expressing Galpha15/Gqi-5
T1 sequence (Q96LB1 1-330): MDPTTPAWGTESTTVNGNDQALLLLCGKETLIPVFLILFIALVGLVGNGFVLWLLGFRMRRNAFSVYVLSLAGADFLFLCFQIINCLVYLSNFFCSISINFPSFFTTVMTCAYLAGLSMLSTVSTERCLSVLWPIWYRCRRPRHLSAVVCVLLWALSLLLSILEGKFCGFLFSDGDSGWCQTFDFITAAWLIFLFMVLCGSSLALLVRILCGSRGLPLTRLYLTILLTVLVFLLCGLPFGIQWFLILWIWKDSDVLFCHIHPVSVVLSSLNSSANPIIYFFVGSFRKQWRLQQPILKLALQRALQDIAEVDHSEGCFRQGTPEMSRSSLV
Experiment: Functional assay measuring intracellular calcium mobilisation (FLIPR)
Format: cell-based
Details: Preliminary EC50 data for receptor MRGX2; transiently transfected cells, Fluo3 calcium response

EC50: 420 nM
SMILES: CCCC[C@@H]1NC(=O)[C@@H](NC(C)=O)CSSC[C@@H](C(N)=O)NC(=O)CNC(=O)[C@H](Cc2c[nH]c3ccccc23)NC(=O)[C@H](CCCNC(=N)N)NC(=O)[C@@H](Cc2ccc3ccccc3c2)NC(=O)[C@H](Cc2c[nH]cn2)NC(=O)[C@H](CCCNC(=N)N)NC1=O [HS024, (Acetyl-Cys^3,Nle^4,Arg^5,D-2-Nal^7,Cys^11)-α-MSH (3-11) amide]
